These results are taken from patent US8318808B2, “Zn2+chelating motif-tethered short-chain fatty acids as a novel class of histone deacetylase inhibitors” (The Ohio State University Research Foundation, priority 2007, dated 2012).

The structures appear in SMILES notation.

This series deals with primary CLL cells. The settings on record: N=6.

For the compound `CC(C)C(C(=O)Nc1ccc(C(=O)NO)cc1)c1ccccc1` (stereo not shown) [compound 42, N-Hydroxy-4-(3-methyl-2-phenyl-butyrylamino)-benzamide], the “concentration at which significant cytotoxicity was observed” value was at least 1 µM.
